For this assay, the target named is JAK2 (Homo sapiens, UniProt O60674). Description: Nanoproteomic analysis of p-JAK2, p-CRKL and p-STAT5a in BC progenitors isolated from treated mice. To be noted: splenic and bone marrow niches of treated mice; 2-day treatment.

By UniProt entry, the sequences of proteins in these tests, tags left out. Where a name states a change or a piece, a line headed by the entry shows the natural chain unless it says otherwise.
UniProt O60674: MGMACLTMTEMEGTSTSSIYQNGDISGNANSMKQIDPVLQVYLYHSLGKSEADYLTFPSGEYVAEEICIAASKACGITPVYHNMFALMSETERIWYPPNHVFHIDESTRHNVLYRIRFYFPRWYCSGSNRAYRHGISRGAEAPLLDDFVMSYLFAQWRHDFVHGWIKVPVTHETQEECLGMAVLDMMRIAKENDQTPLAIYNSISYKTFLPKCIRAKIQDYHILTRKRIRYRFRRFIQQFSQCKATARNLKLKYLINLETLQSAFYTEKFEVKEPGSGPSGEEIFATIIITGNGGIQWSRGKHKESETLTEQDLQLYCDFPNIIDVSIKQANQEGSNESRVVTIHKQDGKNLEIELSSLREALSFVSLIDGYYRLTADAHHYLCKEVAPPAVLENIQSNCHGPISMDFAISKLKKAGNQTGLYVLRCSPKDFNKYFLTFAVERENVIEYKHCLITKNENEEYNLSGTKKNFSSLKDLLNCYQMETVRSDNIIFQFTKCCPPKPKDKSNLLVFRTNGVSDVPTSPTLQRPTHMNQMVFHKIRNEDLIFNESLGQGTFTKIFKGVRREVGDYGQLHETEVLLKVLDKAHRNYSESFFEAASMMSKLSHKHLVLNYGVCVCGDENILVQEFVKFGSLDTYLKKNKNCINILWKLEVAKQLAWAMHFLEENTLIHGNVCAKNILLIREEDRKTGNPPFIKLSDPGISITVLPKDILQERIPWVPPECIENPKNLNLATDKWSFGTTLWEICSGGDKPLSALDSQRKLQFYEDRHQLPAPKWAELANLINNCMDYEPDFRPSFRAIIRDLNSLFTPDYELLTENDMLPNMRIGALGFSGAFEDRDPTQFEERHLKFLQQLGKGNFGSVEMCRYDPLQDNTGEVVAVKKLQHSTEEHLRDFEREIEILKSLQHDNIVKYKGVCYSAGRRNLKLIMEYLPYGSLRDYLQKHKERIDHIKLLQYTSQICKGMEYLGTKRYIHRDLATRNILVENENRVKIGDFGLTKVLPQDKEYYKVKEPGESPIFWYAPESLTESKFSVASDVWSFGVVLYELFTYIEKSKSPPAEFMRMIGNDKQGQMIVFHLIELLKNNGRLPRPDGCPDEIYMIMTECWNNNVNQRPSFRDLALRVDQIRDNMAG

Each structure is given as a SMILES string.

As for `Cc1cnc(Nc2ccc(OCCN3CCCC3)cc2)nc1Nc1cccc(S(=O)(=O)NC(C)(C)C)c1` [SAR302503, N-tert-Butyl-3-{5-methyl-2-[4-(2-pyrrolidin-1-yl-ethoxy)-phenylamino]-pyrimidin-4-ylamino}-benzenesulfonamide], the “JAK2 inhibition by p-JAK2, p-CRKL and p-STAT5a levels in BC progenitors” value was “Selective JAK2 inhibition”.
